Experimental logP (octanol/water) values from OPERA 2.9

Source: data files of OPERA 2.9 (Mansouri et al.), github.com/kmansouri/OPERA.

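The numbers are reported measurements, compiled and curated for the OPERA QSAR suite. The files give a single number for a compound and property, which may rest on several reports. Method, purity and exact conditions of the single measurements are not given. A value may pool stereoisomers or salt forms, and the file does not say which form was measured. Some upstream entries may be estimates or bounds without being marked so.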

logP is the log10 of the octanol-water partition coefficient; higher is more lipophilic. "–" marks a cell with nothing listed here. The databases behind each value are named after "via".

SMILES,name,log Kow,via
Br.NCCBr,"Ethanamine, 2-bromo-, hydrobromide (1:1)",0.795,eChemPortal
O=C(CCCCl)c1ccc(F)cc1,4-Chloro-4'-fluorobutyrophenone,2.84,eChemPortal
Clc1ccc(-c2c(Cl)ccc(Cl)c2Cl)cc1,–,5.95,OCHEM
COc1ccc(CC(C)=O)cc1,"2-Propanone, 1-(4-methoxyphenyl)-",1.9,eChemPortal
FC=CC(F)(F)F,"1,3,3,3-Tetrafluoroprop-1-ene",1.6,eChemPortal
CSc1ccc(C(=O)C(C)(C)N2CCOCC2)cc1,2-Methyl-4'-(methylthio)-2-morpholinopropiophenone,3.09,eChemPortal
FC(F)(F)N1C(F)(F)C(F)(F)OC(F)(F)C1(F)F,Perfluoro(N-methylmorpholine),4.3,eChemPortal
C1=CC2C3C=CC(C3)C2C1 (stereo not given),Dicyclopentadiene,2.78,"OCHEM, PubChem, eChemPortal"
CCCCC(CC)COC(=O)c1ccc(C(=O)OCC(CC)CCCC)c(C(=O)OCC(CC)CCCC)c1 (stereo not given),Tris(2-ethylhexyl) trimellitate,5.94,"OCHEM, OFMPub, eChemPortal"
O=[N+]([O-])c1ccc(/N=N/c2cc(/N=N/c3cc(S(=O)(=O)[O-])cc4cc(S(=O)(=O)[O-])c(/N=N/c5cc([N+](=O)[O-])cc([N+](=O)[O-])c5O)c(O)c34)c(O)cc2O)cc1.[Na+].[Na+],–,-1.189,eChemPortal
O=C([O-])c1c(Cl)c(Cl)c(Cl)c(Cl)c1-c1c2cc(Br)c(=O)c(Br)c-2oc2c(Br)c([O-])c(Br)cc12.O=C([O-])c1c(Cl)c(Cl)c(Cl)c(Cl)c1-c1c2cc(Br)c(=O)c(Br)c-2oc2c(Br)c([O-])c(Br)cc12.O=C([O-])c1c(Cl)c(Cl)c(Cl)c(Cl)c1-c1c2cc(Br)c(=O)c(Br)c-2oc2c(Br)c([O-])c(Br)cc12.[Al+3].[Al+3],D&C Red No. 27 aluminum lake,4.29,eChemPortal
CCOP(=S)(OCC)Oc1ccc(F)nc1,–,3.51,OCHEM
O=C(C(Cl)(Cl)Cl)C(Cl)(Cl)Cl,"1,1,1,3,3,3-Hexachloro-2-propanone",2.59,eChemPortal
CC[C@H]1CCC[C@H](O[C@H]2CC[C@H](N(C)C)[C@@H](C)O2)[C@@H](C)C(=O)C2=C[C@@H]3[C@@H](C=C[C@@H]4C[C@@H](O[C@@H]5O[C@@H](C)[C@H](OC)[C@@H](OC)[C@H]5OC)C[C@@H]34)[C@@H]2CC(=O)O1,Spinosyn A,5,PubChem
CCCCCCCCCC(=O)OOC(=O)CCCCCCCCC,"Peroxide, bis(1-oxodecyl)",6.05,eChemPortal
CCCCC(CC)COC(=O)CCCCC(=O)OCC(CC)CCCC (stereo not given),Bis(2-ethylhexyl)hexanedioate,8.94,eChemPortal
C=CC(=O)OCC1CC2CC1C1CCC(COC(=O)C=C)C21 (stereo not given),Tricyclodecanedimethanol diacrylate,4.6,eChemPortal
N#C[C@@H](O)c1cccc(Oc2ccccc2)c1,(2S)-Hydroxy(3-phenoxyphenyl)acetonitrile,3,eChemPortal
Oc1c(Cl)c(Cl)c(O)c(Cl)c1Cl,–,3.61,OCHEM
COP(=S)(S)OC,"O,O-Dimethyldithiophosphate",-0.7,eChemPortal
Cc1c([N+](=O)[O-])c(C)c([N+](=O)[O-])c(C(C)(C)C)c1[N+](=O)[O-],Musk Xylene,4.9,"OCHEM, PubChem"
CCC(C)(C#N)N=NC(C)(C#N)CC (stereo not given),"2,2'-Azobis(2-methylbutanenitrile)",2.07,eChemPortal
CCCCOC(=O)CCP1(=O)Oc2ccccc2-c2ccccc21 (stereo not given),–,3.323,eChemPortal
CC(C)c1cc(Cc2cc(C(C)C)c(N)c(C(C)C)c2)cc(C(C)C)c1N,"Benzenamine, 4,4'-methylenebis[2,6-bis(1-methylethyl)-",5.68,eChemPortal
CN(C)C(=O)c1cc2cnc(Cl)nc2n1C1CCCC1,–,2.4,eChemPortal
CCOP(=O)(C(=O)c1c(C)cc(C)cc1C)c1ccccc1 (stereo not given),"Ethyl phenyl(2,4,6-trimethylbenzoyl)phosphinate",2.91,eChemPortal
CO[C@]12C[C@@H](COC(=O)c3cncc(Br)c3)CN(C)[C@@H]1Cc1cn(C)c3cccc2c13,Nicergoline,3.3,PubChem
C=CCN1C[C@H](C(=O)N(CCCN(C)C)C(=O)NCC)C[C@@H]2c3cccc4[nH]cc(c34)C[C@H]21,Cabergoline,2.6,PubChem
ClC(Cl)c1ccccc1,Benzal chloride,3.22,eChemPortal
CCOC(=S)[S-].[Na+],SEX,-2.48,eChemPortal
C=CCC1(CC(C)C)C(=O)NC(=O)NC1=O,–,1.7,PubChem
COc1c(C(C)(C)C)cc([N+](=O)[O-])c(C)c1[N+](=O)[O-],Musk ambrette,4,"OCHEM, PubChem"
C=CC(=O)OCCN=C=O,"2-Propenoic acid, 2-isocyanatoethyl ester",1.6,eChemPortal
CN(C)C(=O)C(c1ccccc1)c1ccccc1,Diphenamid,2.17,PubChem
C[C@]12CCC(=O)C=C1CC[C@@H]1[C@@H]2CC[C@@]2(C)[C@H]1CC[C@]2(O)C#N,17-Hydroxy-3-oxoandrost-4-ene-17-carbonitrile,2.43,eChemPortal
COC(=O)N(C)SN(C)C(=O)ON=C(SC)C(=O)N(C)C,–,-0.07,OCHEM
CCCCOCCOC(C)=O,2-Butoxyethyl acetate,1.51,"PubChem, eChemPortal"
CC(c1ccc(C(F)(F)F)nc1)S(C)(=O)=NC#N (stereo not given),Sulfoxaflor,0.802,PubChem
Brc1c(Br)c(Br)c(Oc2c(Br)c(Br)c(Br)c(Br)c2Br)c(Br)c1Br,"2,2',3,3',4,4',5,5',6,6'-Decabromodiphenyl ether",6.27,"OCHEM, PubChem, eChemPortal"
CC(C)(C)C(=O)O[C@H]1CC[C@]2(C)[C@H]3CC[C@]4(C)C(=O)[C@H]5C[C@H]5[C@H]4[C@@H]3[C@H](Br)[C@H]3O[C@]32C1,–,5.32,eChemPortal
C[C@]12CC[C@@H]3C4=C(CC[C@H]3[C@@H]1CC[C@@H]2O)CC(=O)CC4,17-Hydroxy-estr-5(10)-en-3-one,3.1,eChemPortal
FC(F)(F)/C=C/Cl,"(1E)-1-Chloro-3,3,3-trifluoro-1-propene",2.2,eChemPortal
C[N+](C)(C)CC1CCCO1.[I-] (stereo not given),"N,N,N-Trimethyl(oxolan-2-yl)methanaminium iodide",-2.3,OCHEM
O=C(CBr)Nc1ccc(Cl)cc1C(=O)c1ccccc1Cl,2-Bromo-N-(4-chloro-2-(2-chlorobenzoyl)phenyl)acetamide,3.7,eChemPortal
CCCCCCCCP(=O)(O)O,Octylphosphonic acid,-0.45,eChemPortal
FC(Cl)(Cl)C(F)(Cl)Cl,–,2.985,"OCHEM, eChemPortal"
COS(=O)(=O)OC,Dimethyl sulfate,0.16,PubChem
CCC(C)OC(=O)OOC(=O)OC(C)CC (stereo not given),Bis-sec-butyl peroxydicarbonate,3.6,eChemPortal
C#C[C@]1(O)CC[C@H]2[C@@H]3C=CC4=CC(=O)CC[C@@H]4[C@H]3CC[C@@]21C,"(17alpha)-17-Hydroxy-19-norpregna-4,6-dien-20-yn-3-one",2.6,eChemPortal
C[C@@H](Cc1ccccc1)NC(=O)[C@@H](N)CCCCN,Lisdexamfetamine,1.06,PubChem
CCCCCCC(C)N (stereo not given),2-Octanamine,2.82,OCHEM
CNC(=O)c1cc(N2CC2)c([N+](=O)[O-])cc1[N+](=O)[O-],"5-(aziridin-1-yl)-N-methyl-2,4-dinitrobenzamide",0.44,OCHEM

The first 5 entries again:

SMILES	name	log Kow	via
Br.NCCBr	Ethanamine, 2-bromo-, hydrobromide (1:1)	0.795	eChemPortal
O=C(CCCCl)c1ccc(F)cc1	4-Chloro-4'-fluorobutyrophenone	2.84	eChemPortal
Clc1ccc(-c2c(Cl)ccc(Cl)c2Cl)cc1	–	5.95	OCHEM
COc1ccc(CC(C)=O)cc1	2-Propanone, 1-(4-methoxyphenyl)-	1.9	eChemPortal
FC=CC(F)(F)F	1,3,3,3-Tetrafluoroprop-1-ene	1.6	eChemPortal